Literature values, collected in US11135309B2, “Poly(vinyl alcohol) nanocarriers” (THE REGENTS OF THE UNIVERSITY OF CALIFORNIA, priority 2015, dated 2021).

Amino acid sequences for entries named in this document (tags omitted). Residues count along the entry.
UniProt P05556, 21-798 limits assumed: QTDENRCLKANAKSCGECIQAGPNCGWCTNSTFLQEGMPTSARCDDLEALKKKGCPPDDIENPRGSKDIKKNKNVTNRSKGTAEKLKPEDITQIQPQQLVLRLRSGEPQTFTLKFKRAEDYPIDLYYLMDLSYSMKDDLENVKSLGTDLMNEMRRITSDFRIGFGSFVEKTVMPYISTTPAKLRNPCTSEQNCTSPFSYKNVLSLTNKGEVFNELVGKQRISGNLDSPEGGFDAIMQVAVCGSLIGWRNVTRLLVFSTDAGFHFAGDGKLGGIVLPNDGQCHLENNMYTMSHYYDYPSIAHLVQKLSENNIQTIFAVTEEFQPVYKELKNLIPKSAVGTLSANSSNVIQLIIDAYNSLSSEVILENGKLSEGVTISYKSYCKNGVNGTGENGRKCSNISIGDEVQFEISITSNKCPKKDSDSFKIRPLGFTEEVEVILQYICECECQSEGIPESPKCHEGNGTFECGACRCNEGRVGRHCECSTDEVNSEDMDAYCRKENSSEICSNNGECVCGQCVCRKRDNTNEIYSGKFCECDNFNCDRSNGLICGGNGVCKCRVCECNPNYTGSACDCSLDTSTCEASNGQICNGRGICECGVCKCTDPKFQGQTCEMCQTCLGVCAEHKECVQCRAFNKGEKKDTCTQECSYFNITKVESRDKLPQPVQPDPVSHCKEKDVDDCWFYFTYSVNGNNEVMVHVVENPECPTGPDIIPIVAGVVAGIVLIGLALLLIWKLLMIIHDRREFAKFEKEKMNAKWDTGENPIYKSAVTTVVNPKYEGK
UniProt P26006, 33-872 limits assumed: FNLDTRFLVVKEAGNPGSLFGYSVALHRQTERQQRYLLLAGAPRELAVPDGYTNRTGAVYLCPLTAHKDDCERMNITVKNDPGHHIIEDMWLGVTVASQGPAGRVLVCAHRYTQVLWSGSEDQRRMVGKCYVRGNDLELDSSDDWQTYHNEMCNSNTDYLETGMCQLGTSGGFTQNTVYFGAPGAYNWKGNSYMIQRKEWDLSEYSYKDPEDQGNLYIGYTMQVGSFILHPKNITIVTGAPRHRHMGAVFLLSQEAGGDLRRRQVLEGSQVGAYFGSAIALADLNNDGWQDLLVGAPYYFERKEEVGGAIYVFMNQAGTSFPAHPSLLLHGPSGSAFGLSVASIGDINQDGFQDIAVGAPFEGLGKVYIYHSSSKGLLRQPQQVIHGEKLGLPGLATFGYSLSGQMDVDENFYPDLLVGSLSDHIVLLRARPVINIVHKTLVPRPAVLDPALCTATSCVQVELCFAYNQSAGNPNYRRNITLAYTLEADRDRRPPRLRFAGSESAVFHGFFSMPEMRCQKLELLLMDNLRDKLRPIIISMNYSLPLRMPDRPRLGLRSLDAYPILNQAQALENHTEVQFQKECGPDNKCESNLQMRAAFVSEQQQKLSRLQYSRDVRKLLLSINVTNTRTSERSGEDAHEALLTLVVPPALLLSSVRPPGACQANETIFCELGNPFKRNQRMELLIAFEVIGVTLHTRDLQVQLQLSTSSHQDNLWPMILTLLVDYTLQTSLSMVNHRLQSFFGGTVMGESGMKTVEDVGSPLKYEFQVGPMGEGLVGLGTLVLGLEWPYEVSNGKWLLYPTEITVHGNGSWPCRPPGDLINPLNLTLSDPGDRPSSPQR
UniProt P26006, 873-1051 limits assumed: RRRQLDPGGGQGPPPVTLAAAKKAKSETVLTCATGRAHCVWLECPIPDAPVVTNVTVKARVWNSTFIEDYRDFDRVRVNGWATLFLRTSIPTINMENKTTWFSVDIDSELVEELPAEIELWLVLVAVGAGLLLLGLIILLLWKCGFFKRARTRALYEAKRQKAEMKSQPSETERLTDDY

Target: α3 integrin (Homo sapiens, UniProt P05556+P26006)
Conditions: read-out: Kd (binding specificity to α3 integrin); cited from earlier work

NC(=O)C[C@@H]1NC(=O)[C@@H]2C[C@@H](O)CN2C(=O)CNC(=O)[C@H](Cc2ccc(O)c([N+](=O)[O-])c2)NC(=O)CNC(=O)[C@@H](CC(=O)O)NC(=O)[C@H](N)CSSC[C@H](C(N)=O)NC1=O
Kd: 57 nM
